69 compounds from PubChem BioAssay AID2445 (The Scripps Research Institute Molecular Screening Center, 2010) can be followed below.

By UniProt entry, the sequences of proteins in these tests, tags left out.
UniProt P30559, whole entry: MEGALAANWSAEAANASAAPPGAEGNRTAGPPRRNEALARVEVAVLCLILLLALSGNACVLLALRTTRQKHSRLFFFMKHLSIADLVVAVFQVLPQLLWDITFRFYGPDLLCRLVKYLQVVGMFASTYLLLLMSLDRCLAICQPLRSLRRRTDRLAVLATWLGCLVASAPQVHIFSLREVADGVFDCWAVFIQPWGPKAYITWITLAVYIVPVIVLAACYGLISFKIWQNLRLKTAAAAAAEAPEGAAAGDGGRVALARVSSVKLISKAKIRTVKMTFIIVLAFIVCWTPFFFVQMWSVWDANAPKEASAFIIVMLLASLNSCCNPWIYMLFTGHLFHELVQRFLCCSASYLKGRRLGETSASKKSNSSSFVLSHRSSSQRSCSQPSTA

Only a part is listed here, and it is no random draw. Some structures show a salt or complex split into parts, the way the source records it. Calls of active or inactive are those of the source.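 Rule for the calls: active = activation above that plate's cutoff, the mean activation of tested compounds plus 3 SD (cut at about 6.6% in these data, passing the limit was not always enough); inactive = the rest.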

The assay concerns the target Oxytocin receptor (Homo sapiens) (UniProt P30559). Briefly: enhancers of oxytocin-evoked OXTR calcium signal – fluorescence, CHO-OTR cells, Fluo-8 calcium, primary screen (AID 2445).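 Note: 100% uses oxytocin at 75 nM as the full agonist control.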 The conditions noted are these: Fluo-8 calcium fluorescence, potentiator mode, at 3 µM, hits give high values, 0% = oxytocin EC15, 100% = EC100.
Take `O=[N+]([O-])c1ccc2c(c1)C=Nc1ccccc1O2`: the activation is inactive: -3.09%.

As for `Cc1cccc(C)c1OP(C)(N)=O` (centres undefined), the activation was inactive: -18.4%. With `CC(C)(C)c1ccc(OP(C)(=O)Nc2ccc(SC(F)(F)F)cc2)cc1` (centres undefined), the activation was inactive: -7.32%.

For `Cc1ccc(NP(C)(=O)Oc2ccccc2)c(C)c1` (centres undefined), the activation was inactive: -16.7%. Take `COc1ccccc1OP(C)(=O)Nc1ccc(C)cc1` (centres undefined): the activation is inactive: -12%. For the compound `CCOC(=O)c1ccc(NP(C)(=O)Oc2ccccc2)cc1` (centres undefined), the activation is inactive: -5.32%. With `Cc1cc(C)cc(OP(C)(N)=O)c1` (centres undefined), the activation was inactive: -0.15%.

Regarding `COc1ccc(OP(C)(=O)Nc2cccc(F)c2)cc1` (centres undefined), the activation is inactive: -14.3%.

In the case of `COc1ccccc1OP(C)(=O)Nc1cc(Cl)ccc1C` (centres undefined), the activation is inactive: -14.7%. Consider `CCN(CC)CCCOC(=O)C(O)(c1ccccc1)c1ccccc1`, for which the activation is inactive: -4.42%. Regarding `CP(=O)(Oc1ccccc1)OC(c1ccccc1)C(F)(F)F` (centres undefined), the activation was inactive: -1.7%.

`CP(=O)(Nc1ccc(SC(F)(F)F)cc1)Oc1ccc(Cl)cc1` (centres undefined): the activation was inactive: -2.22%. `Cc1cccc(C)c1OP(C)(=O)Nc1ccc(SC(F)(F)F)cc1` (centres undefined): the activation was inactive: -9.14%. For the compound `Cc1cc(C)cc(OP(C)(=O)Nc2ccc(SC(F)(F)F)cc2)c1` (centres undefined), the activation is inactive: -11.7%.

As to `CP(=O)(NC(=O)Nc1ccccc1)Oc1ccccc1` (centres undefined), the activation is inactive: 3.47%. Regarding `CCc1ccc(OP(C)(=O)N2CCN(c3ccc([N+](=O)[O-])cc3)CC2)cc1` (centres undefined), the activation is inactive: -12.7%. The value for `O=[N+]([O-])c1cc([N+](=O)[O-])c(O)c([N+](=O)[O-])c1.c1ccc(Oc2ccncc2)cc1` was inactive: 0.16%. The value for `CCOC(=O)c1ccc(NP(C)(=O)Oc2ccc(OC)cc2)cc1` (centres undefined) was inactive: -1.02%; that for `CCOP(C)(=S)SCC(=O)NC(C)C(=O)O` (centres undefined) was inactive: -4.74%; that for `CP(=O)(Nc1ccccn1)Oc1ccc(Cl)cc1` (centres undefined) was inactive: -3.81%. On to `CP(=S)(Nn1cnnc1)Oc1ccccc1` (centres undefined), for which the activation is inactive: -0.71%. On to `CP(=O)(Nc1ccccc1Br)Oc1ccccc1` (centres undefined), for which the activation was inactive: 4.36%.

In the case of `COc1ccccc1OP(C)(=O)Nc1ccccc1` (centres undefined), the activation is inactive: -4.27%.

Take `Nc1ccc2c(ccc3cccnc32)n1.O=[N+]([O-])c1cc([N+](=O)[O-])c(O)c([N+](=O)[O-])c1`: the activation is inactive: -8.05%. For `CCOC(=O)c1ccc(NP(C)(=O)Oc2ccc(Cl)cc2)cc1` (centres undefined), the activation is inactive: -1.9%. Regarding `CP(=O)(OC12CC3CC(CC(C3)C1)C2)OC12CC3CC(CC(C3)C1)C2`, the activation is inactive: -3.98%. Turning to `COc1ccc(OP(C)(=O)Nc2ccc(Br)cc2)cc1` (centres undefined), the activation is inactive: -3.62%. On to `CCN(CC)CC(O)COC(=O)C(O)(c1ccccc1)C1CCCCC1` (centres undefined), for which the activation was inactive: -2.39%. Take `O=C(OCCCN1CCCC1)C(O)(c1ccccc1)C1CCCCC1` (centres undefined): the activation is inactive: -5.57%. As to `COc1ccccc1OP(C)(=O)Nc1c(C)n(C)n(-c2ccccc2)c1=O` (centres undefined), the activation is inactive: -6.86%.

`CCc1ccc(OP(C)(=O)Nc2cccnc2)cc1` (centres undefined): the activation is inactive: 0.9%. With `CP(=O)(Oc1ccccc1)N1CCOC1=O` (centres undefined), the activation was inactive: -6.95%. With `COc1ccccc1OP(C)(=O)Nc1ccccc1Br` (centres undefined) the figure was inactive: 2.7%; with `CC(C)(C)c1ccc(OP(C)(=O)O)cc1`, inactive: 0.11%. With `CP(=O)(Nc1ccc(Cl)cc1)Oc1ccc(F)cc1` (centres undefined), the activation is inactive: 1.25%. As to `CN(C)C(=O)c1c([N+](=O)[O-])cc([N+](=O)[O-])cc1[N+](=O)[O-]`, the activation is inactive: 1.65%. `COc1ccccc1OP(C)(=O)Nc1ccc(Br)cc1` (centres undefined): the activation is inactive: -2.44%. With `COc1ccc(OP(C)(=O)Nc2ccccn2)cc1` (centres undefined), the activation is inactive: 1.92%. As for `CN(C)CCOC(=O)C(O)(c1ccccc1)C1CCCC1` (centres undefined), the activation is inactive: -0.74%. With `Cc1c(NP(C)(=O)Oc2ccc(C(C)C)cc2)c(=O)n(-c2ccccc2)n1C` (centres undefined) the figure was inactive: -3.13%; with `O=[N+]([O-])c1cc([N+](=O)[O-])c(Nc2ccccn2)c([N+](=O)[O-])c1`, inactive: -10.8%; with `COc1ccccc1OP(C)(=O)Nc1ccc(C)cc1C` (centres undefined), inactive: -9.24%. Turning to `CP(=O)(Nc1ccccn1)Oc1ccccc1` (centres undefined), the activation is inactive: -4.48%. With `CCc1ccc(OP(C)(=O)O)cc1`, the activation was inactive: 2.27%. `Cc1cc(C)cc(OP(C)(=O)Nc2cccc(C(F)(F)F)c2)c1` (centres undefined): the activation is inactive: -3.01%. The value for `COc1ccccc1OP(C)(=O)Nc1ccc(C)c(C)c1` (centres undefined) was inactive: -8.77%; that for `COc1ccc(OP(C)(=O)Nc2ccccc2Br)cc1` (centres undefined) was inactive: 4.2%. Take `Cc1nc2ccc3ccccc3c2o1.O=[N+]([O-])c1cc([N+](=O)[O-])c(O)c([N+](=O)[O-])c1`: the activation is inactive: 2.01%.

In the case of `CP(=O)(Nc1ccc(Cl)cc1Cl)Oc1ccccc1` (centres undefined), the activation was inactive: -20.9%. For `CP(=O)(OCCOc1ccccc1)OCCOc1ccccc1`, the activation is inactive: -7.29%. With `CCOC(=O)c1ccc(NP(C)(=O)Oc2ccc(F)cc2)cc1` (centres undefined) the figure was inactive: -1.26%; with `COc1ccc(OP(C)(=O)Nc2ccc(SC(F)(F)F)cc2)cc1` (centres undefined), inactive: -5.36%. In the case of `CCN(CC)CCCOC(=O)C(O)(c1ccccc1)C1CCCCC1` (centres undefined), the activation is inactive: -16.4%. For `CP(=O)(Nc1ccccc1)Oc1ccc(F)cc1` (centres undefined), the activation is inactive: -10.2%. As for `CCCCCOc1ccc(NP(C)(=O)Oc2ccc(Cl)cc2Cl)cc1` (centres undefined), the activation was inactive: -7.04%.

Turning to `O=[N+]([O-])c1cc([N+](=O)[O-])c(OC2CCCCC2O)c([N+](=O)[O-])c1` (centres undefined), the activation is inactive: 3.51%. In the case of `CP(=O)(Nc1ccccc1F)Oc1ccccc1` (centres undefined), the activation was inactive: 2.26%.

With `CC(C)c1ccc(OP(C)(=O)Nc2ccc(SC(F)(F)F)cc2)cc1` (centres undefined), the activation was inactive: -3.98%. `O=C(OC1CN2CCC1CC2)c1ccc([N+](=O)[O-])cc1` (centres undefined): the activation was inactive: -8.66%. The value for `O=C(OCCN1CCN(CCOCc2ccccc2)CC1)C(O)(c1ccccc1)c1ccccc1` was inactive: -7.25%; that for `COc1ccc2c(c1O)-c1c(O)c(OC)cc3c1[C@H](C2)[N+](C)(C)CC3.O=[N+]([O-])c1cc([N+](=O)[O-])c([O-])c([N+](=O)[O-])c1[O-]` was inactive: -4.15%; that for `CP(=O)(Nc1ccc(SC(F)(F)F)cc1)Oc1ccc(F)cc1` (centres undefined) was inactive: -5.77%. As to `CCOP(C)(=S)SCC(=O)NC(C)(CC)C(=O)O` (centres undefined), the activation is inactive: -6.6%. With `CP(=O)(Nc1ccc2c(c1)OCCO2)Oc1ccccc1` (centres undefined), the activation was inactive: -1.12%. Turning to `Cc1ccccc1NP(C)(=O)Nc1ccccc1C`, the activation is inactive: -11.1%. For `COc1ccc(OP(C)(=O)Nc2cccc(Br)c2)cc1` (centres undefined), the activation is inactive: -12.1%. As for `CN(C)CCOC(=O)C(O)(c1ccccc1)C1CCCCC1` (centres undefined), the activation was inactive: 0.22%. In the case of `COc1ccc(NP(C)(=O)Oc2ccccc2OC)cc1` (centres undefined), the activation was inactive: 2.55%. With `O=[N+]([O-])c1cc([N+](=O)[O-])c(NCC2CCS(=O)(=O)C2)c([N+](=O)[O-])c1` (centres undefined) the figure was inactive: -5.41%.
